# Source: PubChem (National Center for Advancing Translational Sciences (NCATS))
# TDP1 block: TDP1 (human) enzyme inhibition; Potency, µM (series often up to 130 µM), inactives show at the top dose activity change, negative = inhibition, actives largely listed as inhibitors; Q9NUW8; hit rate 0.28% among 350,000; recombinant TDP1, AlphaScreen DNA substrate cleavage; also: potency is read from the fitted curve at half-maximal effect; % is scaled to controls: 0 for no effect and ±100 for the full control effect; nearly all actives have a fitted effect of over 40% in size
#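 Tdp1 1 nM final; 15 min RT w/ cpd; substrate 15 nM, 5 min; beads 10 ug/ml, 10 min; AlphaScreen read. Neg ctrl: no enzyme.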
# uPA surface inh: blocks generation of uPA at the cell surface; cell surface uPA generation assay, qHTS; Potency, µM (doses to about 38.3 µM), for inactives: at the highest dose activity change, negative = inhibition, usual class: inhibitors; hit rate 0.31% among 330,000; active = well fitted inhibition curve with a large enough effect; inconclusive = small, poorly fitted or top-dose-only effect; inactive = no such curve, though single readings can be large or run the other way; tested in mouse RAW 264.7 cells; also: potency is read from the fitted curve at half-maximal effect; % is scaled to controls: 0 for no effect and ±100 for the full control effect; nearly all actives have a fitted effect of over 55% in size
# miR-21 reporter: miR-21 reporter, rising signal | AID 2288 | HeLa miR-21 FLuc reporter, luciferase, 48 h | 340,000 tested, under 10 active | Potency, µM (doses to about 38.3 µM), for inactives: at the top dose reporter change, positive = more light; active = well fitted rising curve with a large enough effect; inconclusive = small, poorly fitted or top-dose-only effect; inactive = no such curve, though single readings can be large or run the other way;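 note: % of control where 0% means no effect; miR-21 action dims this reporter so a rising signal means less miR-21 action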
#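 Using DMEM plus 10% FBS, HeLa miR-21-FLuc cells are incubated with test compounds (final up to about 40uM) for 48 hours; firefly luciferase signal is then imaged following reagent-mediated lysis.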
# TDP1 cell CPT: DT40-hTDP1 cell growth loss with CPT | chicken DT40 Tdp1-/-;hTDP1 cells + 20 nM CPT, ATP luminescence, 48 h | Potency, µM (top dose mostly 46.2 µM), inactives show at the top dose activity change, negative = growth inhibition, usual class: inhibitors | hit rate 12% among 420,000; also: potency is read from the fitted curve at half-maximal effect; % is scaled to controls: 0 for no effect and ±100 for the full control effect; nearly all actives have a fitted effect of over 55% in size
#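 Chicken DT40 Tdp1-/- cells stably complemented with human TDP1 were seeded at 400 cells/well in medium containing 20 nM camptothecin, exposed to pin-transferred compounds, and grown at 37 °C for at least 48 hr. Viability was read as ATP luminescence.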
# TDP1 cell noCPT: qHTS for Inhibitors of human tyrosyl-DNA phosphodiesterase 1 (TDP1): qHTS in cells in absence of CPT | hit rate 15% among 420,000 | Potency, µM (doses to about 46.2 µM), without a hit: top-dose activity change, negative = growth inhibition, actives largely listed as inhibitors | DT40 Tdp1-/- hTDP1 cells, no CPT, ATP luminescence, 48 h | AID 686978, 2013; also: potency is read from the fitted curve at half-maximal effect; % is scaled to controls: 0 for no effect and ±100 for the full control effect; nearly all actives have a fitted effect of over 55% in size
#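 Cells were dispensed at 400 per well, compounds added by pin tool, plates incubated ≥48 hr at 37 °C, then CellTiter-Glo added for 30 min at room temperature before luminescence reading. Line: DT40 Tdp1-/- complemented with hTDP1; camptothecin omitted.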
# * hit, by the source's call; ? = inconclusive; · = not tested or not shown; [ ] = dose if it differs, or a comment. Hits are enriched below; roughly 16% of the tested compounds scored in any of these assays. Unless noted, calls follow the shape of the dose curve; as a rule, active = well fitted curve in the direction sought with a large enough effect; inconclusive = small, poorly fitted or top-dose-only effect, or another doubt; inactive = no such curve, though single readings can be large; an effect the other way counts as inactive or inconclusive.
SMILES,TDP1 block,uPA surface inh,miR-21 reporter,TDP1 cell CPT,TDP1 cell noCPT
COc1ccccc1N1CCN(C(=O)c2coc(=O)c(Br)c2)CC1,2%,-1%,-2%,3.3µM*,7.3µM*
COc1ccccc1NC(=O)c1cc(N)cc(C(=O)Nc2ccccc2OC)c1,·,-1%,·,23µM*,?
COc1ccccc1NC(=O)c1sc(-c2ccc(Cl)cc2)cc1N,-5%,·,-38%,?,18µM*
COc1ccccc1NC(=O)c1ccc2ccccc2c1,-11%,·,·,·,·
CC(C)c1ccc(N(C(=O)C(F)(F)F)C(C(=O)NC2CCCCC2)c2ccncc2)cc1 (centres undefined),4%,-4%,-2%,8%,9%
COc1ccccc1NC(=O)c1c(NC(=O)c2ccccc2F)sc2c1CCC2,-14%[12.3 µM],·,0%,-8%,-1%
CCOC(=O)c1sc(=S)n(-c2ccc(C)cc2)c1N,1%,2%,-8%,?,-1%
CCCC(c1nnnn1Cc1cccs1)N1CCN(C)CC1 (centres undefined),-3%,1%,3%,4%,-4%
COc1ccccc1CN1CCN(C(CC(C)C)c2nnnn2Cc2cccs2)CC1 (centres undefined),3%,-5%,5%,18µM*,?
COCCn1nnnc1C(c1ccc(C)cc1)N1CCN(Cc2ccc3c(c2)OCO3)CC1 (centres undefined),6%,0%,-8%,16µM*,?
c1ccc(Cn2nnnc2CN2CCN(Cc3ccc4c(c3)OCO4)CC2)cc1,2%,4%,-7%,21µM*,?
O=C1CC(N2CCN(Cc3ccc4c(c3)OCO4)CC2)C(=O)N1CCc1ccccc1 (centres undefined),2%,·,3%,13µM*,?
CN(C)c1ncc2nc(-c3cccs3)c(=O)n(CCC#N)c2n1,·,·,·,-4%,-11%
Cc1ccc(C(c2nnnn2Cc2cccs2)N2CCN(Cc3ccc4c(c3)OCO4)CC2)cc1 (centres undefined),2%,-14%,8%,7.3µM*,9.2µM*
COCCn1nnnc1C(c1ccccc1)N1CCN(Cc2ccc3c(c2)OCO3)CC1 (centres undefined),1%,-6%,-5%,-11%,?
CC(=O)Nc1ccc(S(=O)(=O)N(C)c2ccccc2)cc1,3%,·,-2%,-8%,-6%
CCOC(=O)/C=C/C(=O)Nc1ccc(S(=O)(=O)N(C)c2ccccc2)cc1,0%,-11%,7%,1.8µM*,?
CCc1cccc(C)c1NC(=O)CN1CCN(S(=O)(=O)c2ccc(C(C)(C)C)cc2)CC1,·,2%,·,-42%,23µM*
O=C(c1cc(S(=O)(=O)N2CCOCC2)ccc1F)N1CCCc2ccccc21,6%,-2%,-7%,?,?
CCOc1ccc(NC(=O)c2cc(S(=O)(=O)N3CCc4ccccc43)ccc2F)cc1,3%,·,18%,8.2µM*,9.2µM*
Cc1cccc(C)c1NC(=O)c1cc(S(=O)(=O)N2CCCc3ccccc32)ccc1F,5%,·,7%,10µM*,4.1µM*
COc1ccc(NC(=O)c2ccc(-c3nc(CSc4ccc(C)cc4)c(C)o3)cc2)cc1Cl,6%,·,1%,?,?
CCC(C)NS(=O)(=O)c1ccc(NC(=O)c2c(-c3ccccc3)noc2C)cc1 (centres undefined),2%,?,-1%,?,?
Cc1cccc(C)c1NC(=O)c1cc(S(=O)(=O)N2CCc3ccccc3C2)ccc1F,10%,·,-8%,18µM*,?
CCc1cccc(C)c1NC(=O)c1cc(S(=O)(=O)N2CCN(c3ccccc3)CC2)ccc1F,8%,·,1%,16µM*,9.2µM*

# Entries of single compounds, quoted from the list.
# Profile of CN(C)c1ncc2nc(-c3cccs3)c(=O)n(CCC#N)c2n1 → TDP1 block = ·; uPA surface inh = ·; miR-21 reporter = ·; TDP1 cell CPT = -4%; TDP1 cell noCPT = -11%
# Profile of O=C(c1cc(S(=O)(=O)N2CCOCC2)ccc1F)N1CCCc2ccccc21 → TDP1 block = 6%; uPA surface inh = -2%; miR-21 reporter = -7%; TDP1 cell CPT = ?; TDP1 cell noCPT = ?
# Profile of COCCn1nnnc1C(c1ccc(C)cc1)N1CCN(Cc2ccc3c(c2)OCO3)CC1 (centres undefined) → TDP1 block = 6%; uPA surface inh = 0%; miR-21 reporter = -8%; TDP1 cell CPT = 16µM*; TDP1 cell noCPT = ?

# The main list resumes, repeating the two entries before the break.
SMILES,TDP1 block,uPA surface inh,miR-21 reporter,TDP1 cell CPT,TDP1 cell noCPT
Cc1cccc(C)c1NC(=O)c1cc(S(=O)(=O)N2CCc3ccccc3C2)ccc1F,10%,·,-8%,18µM*,?
CCc1cccc(C)c1NC(=O)c1cc(S(=O)(=O)N2CCN(c3ccccc3)CC2)ccc1F,8%,·,1%,16µM*,9.2µM*
Cc1ccc(S(=O)(=O)N2CCCc3ccccc32)cc1C,·,1%,0%,12µM*,9.2µM*
Cc1cccc(C)c1NC(=O)c1cc(S(=O)(=O)N2CCC3(CC2)OCCO3)ccc1F,·,·,·,-16%,-20%
O=C(Nc1ccc(Cl)cc1)c1cc(S(=O)(=O)N2CCCc3ccccc32)ccc1F,0%,·,13%,16µM*,15µM*
Cc1ccc(S(=O)(=O)N2CCCc3cc(NS(=O)(=O)c4ccc(C)c(C)c4)ccc32)cc1,6%,·,14%,?,?
CCC(=O)N1CCc2cc(S(=O)(=O)N3CCc4ccccc4C3)ccc21,-2%,1%,-8%,?,-26%
CCCCCCNC(=O)c1cc(S(=O)(=O)N2CCc3ccccc32)ccc1F,·,-2%,-4%,?,?
O=C(O)c1cc(S(=O)(=O)N2CCCc3ccccc32)ccc1Cl,·,7%,-7%,-8%,0%
COC(=O)Nc1ccc(S(=O)(=O)N2c3ccccc3CCC2C)cc1 (centres undefined),1%,?,28%,4.6µM*,2.6µM*
Cc1ccc(NC(=O)c2cc(S(=O)(=O)N3CCCc4ccccc43)ccc2F)cc1F,5%,·,?,16µM*,6.5µM*
Cc1ccc(NC(=O)c2cc(S(=O)(=O)N3CCc4ccccc43)ccc2F)cc1Cl,3%,·,13%,4.1µM*,5.8µM*
CCC(=O)N1CCCc2cc(S(=O)(=O)N3CCCc4ccccc43)ccc21,4%,-1%,5%,26µM*,18µM*
CCOCCCNC(=O)C(c1ccc(Cl)cc1)N1CCN(c2ccccc2)CC1 (centres undefined),-1%,1%,-7%,-25%,?
C[C@@H]1COC(=O)[C@H](Cc2ccc(F)cc2)CC/C=C\C[C@@H](CC(=O)NCCO)C(=O)N1,0%,-7%,·,1%,-6%
CCOC(=O)/C=C/C(=O)Nc1ccc(S(=O)(=O)N2CCCCCC2)cc1,0%,-6%,1%,?,?
O=C(Nc1c(F)cc(F)cc1Br)c1cc(S(=O)(=O)N2CCN(c3ccccn3)CC2)ccc1F,7%,-20%,-1%,?,26µM*
Nc1ccc(S(=O)(=O)N2CCCc3ccccc32)cc1,-1%,-8%,2%,-9%,-26%
O=C(O)c1cc(S(=O)(=O)N2CCN(c3ccccn3)CC2)ccc1Cl,1%,-2%,0%,18%,13%
CCOC(=O)/C=C/C(=O)Nc1ccc(S(=O)(=O)N2CCc3ccccc32)cc1,·,?,12%,23µM*,15µM*
O=C(Nc1ccc(Br)cc1)c1cc(S(=O)(=O)N2CCc3ccccc32)ccc1F,3%,·,19%,15µM*,15µM*
CC(=O)Nc1ccc(S(=O)(=O)N2CCCc3ccccc32)cc1,4%,?,18%,6.5µM*,9.2µM*
CCNc1ncc2nc(-c3cn(C)c4ccccc34)c(=O)n(Cc3ccc(F)cc3)c2n1,·,·,·,-9%,-12%
